In this assay the target is D2 DA receptor (Mus musculus, UniProt P61168).

Sequences of proteins named here, by UniProt entry; tags and fusion partners are left off.
UniProt P61168, whole entry: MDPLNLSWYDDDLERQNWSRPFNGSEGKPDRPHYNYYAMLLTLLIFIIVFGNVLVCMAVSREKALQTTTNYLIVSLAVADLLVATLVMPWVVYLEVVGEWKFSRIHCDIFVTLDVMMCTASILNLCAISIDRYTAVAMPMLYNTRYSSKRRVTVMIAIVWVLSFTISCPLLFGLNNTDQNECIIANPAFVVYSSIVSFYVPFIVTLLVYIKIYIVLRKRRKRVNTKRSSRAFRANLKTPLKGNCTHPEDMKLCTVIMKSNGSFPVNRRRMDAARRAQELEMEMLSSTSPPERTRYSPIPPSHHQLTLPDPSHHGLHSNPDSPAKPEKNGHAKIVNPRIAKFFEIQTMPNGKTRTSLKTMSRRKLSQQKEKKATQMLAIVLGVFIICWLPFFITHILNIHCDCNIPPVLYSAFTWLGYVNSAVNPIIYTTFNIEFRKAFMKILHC

`CCCN1CCC[C@@H]2Cc3n[nH]cc3C[C@H]21` [quinpirole]: the “inhibition of firing of cells expressing α6* nAChRs” value is reported as “sensitive to the inhibitory properties”.

The record behind these values is patent US20090100532A1, “TRANSGENIC MICE EXPRESSING HYPERSENSITIVE NICOTINIC RECEPTORS” (CALIFORNIA INSTITUTE OF TECHNOLOGY, priority 2007, published 2009).
